Read-outs that look alike come from different tables or passages of the source.
Target: T1, Aminopeptidase N (Sus scrofa, UniProt P15145)
T1 construct: Aminopeptidase N purified from pig's kidney; purchased Böehringer Mannheim (Meylan, France); host or cells: pig's kidney
T1 sequence (P15145 1-963): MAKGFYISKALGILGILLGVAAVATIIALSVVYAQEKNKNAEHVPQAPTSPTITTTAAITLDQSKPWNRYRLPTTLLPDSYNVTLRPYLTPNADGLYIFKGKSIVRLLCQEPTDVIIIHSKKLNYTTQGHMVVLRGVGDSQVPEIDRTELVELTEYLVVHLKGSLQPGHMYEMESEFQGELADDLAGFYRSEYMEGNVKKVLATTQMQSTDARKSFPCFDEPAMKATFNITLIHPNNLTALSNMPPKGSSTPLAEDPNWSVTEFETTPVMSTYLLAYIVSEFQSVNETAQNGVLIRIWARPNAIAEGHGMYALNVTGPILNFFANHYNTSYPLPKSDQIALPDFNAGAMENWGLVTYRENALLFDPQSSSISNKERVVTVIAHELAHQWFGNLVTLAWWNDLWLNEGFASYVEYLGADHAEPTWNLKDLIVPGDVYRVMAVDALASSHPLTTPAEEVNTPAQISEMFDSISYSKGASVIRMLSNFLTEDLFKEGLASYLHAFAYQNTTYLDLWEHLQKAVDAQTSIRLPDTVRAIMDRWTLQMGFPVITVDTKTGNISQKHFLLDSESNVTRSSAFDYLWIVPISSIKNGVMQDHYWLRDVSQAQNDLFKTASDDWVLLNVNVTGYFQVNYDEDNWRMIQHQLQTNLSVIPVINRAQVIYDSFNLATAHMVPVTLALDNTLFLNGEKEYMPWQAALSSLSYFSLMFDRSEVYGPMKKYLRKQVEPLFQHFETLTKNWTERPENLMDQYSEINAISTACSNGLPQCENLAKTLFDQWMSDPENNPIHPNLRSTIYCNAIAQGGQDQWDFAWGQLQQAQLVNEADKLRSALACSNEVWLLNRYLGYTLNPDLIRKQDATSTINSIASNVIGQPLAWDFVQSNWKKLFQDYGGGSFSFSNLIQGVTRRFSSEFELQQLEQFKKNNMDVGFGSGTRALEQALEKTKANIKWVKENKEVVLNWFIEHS
Assay: In vitro inhibiting power on aminopeptidase N (Ala-Na substrate)
Format: biochemical, pig
Experimental: b)) In vitro study of the inhibiting power of the synthesised compounds on aminopeptidase N.
1°) Source of the Enzyme.
Aminopeptidase N purified from pig's kidney is marketed by Böehringer Mannheim (Meylan, France).
The APN is incubated for 10 min at 37° C. in the absence or in the presence of increasing concentrations of inhibitors in a total volume of 100 μl in Tris HCl buffer (50 mM, pH =7.4. 200 μM of Ala-Na are added and the whole thing is incubated for 30 min at 37° C. The reaction is stopped by the addition of 10 μl of CH3COO—Na 1M (pH=4.2). The absorption is measured at 400 nm and compared with that of a standard range of 2-naphthyiamine.

SMILES | Ki [M] | Ki (read-out: Ki (M) APN, APN purified from pig's kidney, 200 μM Ala-Na, 37° C., Tris HCl pH 7.4) [M]
CCC(C)C(NC(=O)C(S)C(N)CCS(=O)(=O)O)C(=O)NC(CS(=O)(=O)O)C(=O)O (single isomer, unassigned) [Example 5A] | > 5e-06 | 
CCC(C)C(NC(=O)C(S)C(N)CCS(=O)(=O)O)C(=O)NC(CS(=O)(=O)O)C(=O)O (single isomer, unassigned) [Example 5B] |  | > 5e-06
